Measurements taken from patent US9309186B2, “Polymorphic form of a long-acting beta-2 adrenoceptor agonist” (Laboratorios Lesvi S.L., priority 2012, dated 2016).

Assays:
[1] = for Solubility range: 0.5 mL milliQ water, 25° C., stirred 1 hour, minor value = highest concentration completely dissolved, major value = lowest concentration not completely dissolved
physchem = conditions: 25 °C, water, thermodynamic from solid, solubility in water, measured at 25 degrees C.

| Structure (SMILES) | Solubility range [1] [mg/mL] | solubility in water as defined according to The United States Pharmacopeia, 24th ed. [1] | solubility at 1 h (physchem) [mg/mL] |
| --- | --- | --- | --- |
| COc1ccc(C[C@@H](C)NC[C@H](O)c2ccc(O)c(NC=O)c2)cc1.O=C(O)C(O)C(O)C(=O)O [form C, (R,R)-Formoterol-L-tartrate] | 12 to 18 | – | – |
| COc1ccc(C[C@@H](C)NC[C@H](O)c2ccc(O)c(NC=O)c2)cc1.O=C(O)C(O)C(O)C(=O)O [form D, (R,R)-Formoterol-L-tartrate] | 38 to 83 | soluble | 38 to 83 |
| COc1ccc(C[C@@H](C)NC[C@H](O)c2ccc(O)c(NC=O)c2)cc1.O=C(O)C(O)C(O)C(=O)O [form A, (R,R)-Formoterol-L-tartrate] | 14 to 17 | sparingly soluble | – |
| COc1ccc(C[C@@H](C)NC[C@H](O)c2ccc(O)c(NC=O)c2)cc1.O=C(O)C(O)C(O)C(=O)O [Mixture form A/form D, (R,R)-Formoterol-L-tartrate] | 14 to 17 | – | – |
| COc1ccc(C[C@@H](C)NC[C@H](O)c2ccc(O)c(NC=O)c2)cc1.O=C(O)C(O)C(O)C(=O)O [form B, (R,R)-Formoterol-L-tartrate] | 24 to 32 | sparingly soluble | – |
